The values that follow are results of earlier work, collected in patent US10948221B1 (priority 2020, dated 2021).

This series has as its system rat. The note with it: in vivo.

Consider NaCl, for which the “LD50 (oral-rat; mg/kg)” value is given as 3000 mg/kg.
